# Results as given in patent publication US20240327383A1 (priority 2021, published 2024).
# Sequences of proteins named here, by UniProt entry; tags and fusion partners are left off. A change or cut given only in a name is not applied to a line headed by its entry.
# UniProt P41143, whole entry, looked up: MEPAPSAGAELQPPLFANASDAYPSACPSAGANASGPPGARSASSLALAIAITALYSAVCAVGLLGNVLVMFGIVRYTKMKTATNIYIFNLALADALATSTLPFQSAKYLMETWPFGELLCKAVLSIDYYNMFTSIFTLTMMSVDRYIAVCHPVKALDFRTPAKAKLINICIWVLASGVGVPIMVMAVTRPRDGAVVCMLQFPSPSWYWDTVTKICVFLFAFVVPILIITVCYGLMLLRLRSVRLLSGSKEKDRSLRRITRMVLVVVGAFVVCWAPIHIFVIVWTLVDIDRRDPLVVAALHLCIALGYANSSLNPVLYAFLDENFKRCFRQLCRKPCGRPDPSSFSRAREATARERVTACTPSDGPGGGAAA
# UniProt P41145: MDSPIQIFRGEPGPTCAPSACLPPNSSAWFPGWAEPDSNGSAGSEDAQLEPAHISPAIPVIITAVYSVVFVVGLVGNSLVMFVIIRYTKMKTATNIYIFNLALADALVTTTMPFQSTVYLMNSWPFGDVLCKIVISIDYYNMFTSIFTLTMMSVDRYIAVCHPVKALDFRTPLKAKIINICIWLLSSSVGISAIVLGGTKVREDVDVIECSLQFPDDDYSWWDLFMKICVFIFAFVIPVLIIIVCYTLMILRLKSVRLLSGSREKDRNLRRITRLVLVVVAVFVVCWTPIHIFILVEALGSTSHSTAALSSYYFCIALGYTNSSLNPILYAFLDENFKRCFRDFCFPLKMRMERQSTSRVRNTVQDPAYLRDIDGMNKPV
# UniProt P35372, whole entry, looked up: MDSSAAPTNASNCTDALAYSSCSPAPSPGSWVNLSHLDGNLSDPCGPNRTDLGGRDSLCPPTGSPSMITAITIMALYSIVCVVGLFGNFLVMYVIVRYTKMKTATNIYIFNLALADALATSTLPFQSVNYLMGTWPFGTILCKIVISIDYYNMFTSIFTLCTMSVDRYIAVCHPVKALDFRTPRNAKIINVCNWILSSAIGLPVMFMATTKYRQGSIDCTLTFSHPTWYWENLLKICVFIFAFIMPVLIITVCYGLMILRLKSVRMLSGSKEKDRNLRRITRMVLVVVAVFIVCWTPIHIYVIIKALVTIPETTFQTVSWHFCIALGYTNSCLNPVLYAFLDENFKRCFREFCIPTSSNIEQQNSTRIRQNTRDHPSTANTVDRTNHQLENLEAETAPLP
# UniProt P41146: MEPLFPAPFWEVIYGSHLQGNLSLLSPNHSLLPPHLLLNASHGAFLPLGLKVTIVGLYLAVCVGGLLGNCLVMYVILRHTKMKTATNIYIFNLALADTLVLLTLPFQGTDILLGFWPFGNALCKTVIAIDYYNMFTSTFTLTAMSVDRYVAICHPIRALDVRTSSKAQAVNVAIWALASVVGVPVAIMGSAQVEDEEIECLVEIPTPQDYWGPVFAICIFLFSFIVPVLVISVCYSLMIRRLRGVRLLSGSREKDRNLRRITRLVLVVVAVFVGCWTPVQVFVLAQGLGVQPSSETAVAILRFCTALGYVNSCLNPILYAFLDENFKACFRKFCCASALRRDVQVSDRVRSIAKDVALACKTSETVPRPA
# Experiments:
# hDOP receptor = hDOP receptor (Homo sapiens, UniProt P41143); assay: Agonistic function cAMP assay, HEK293-hDOPr cells; settings: for pEC50: read-out: hDOP receptor EC50
# hKOP receptor = hKOP receptor (Homo sapiens, UniProt P41145); assay: Agonistic function cAMP assay, HEK293-hKOPr cells; settings: for pEC50: read-out: hKOP receptor EC50
# hMOP receptor = hMOP receptor (Homo sapiens, UniProt P35372); assay: Agonistic function cAMP assay, CHO-hMOPr cells; settings: for pEC50: read-out: hMOP receptor EC50
# [1] = target: hNOP receptor (ORL-1 receptor) (Homo sapiens, UniProt P41146); assay: Agonistic function cAMP assay, CHO-hNOPr cells; settings: for pEC50: read-out: hNOP receptor (ORL-1 receptor) EC50
# hNOPr = hNOPr (Homo sapiens, UniProt P41146); assay: Opioid receptor affinity, radioligand binding ([3H]-Nociceptin), HEK293-NOP receptor cell membrane; settings: read-out: Opioid receptor affinity Ki hNOPr; [3H]-Nociceptin 0.5 nM
# hKOPr = hKOPr (Homo sapiens, UniProt P41145); assay: Opioid receptor affinity, radioligand binding ([3H]-U69593), CHO-K1 KOP receptor cell membrane; settings: read-out: Opioid receptor affinity Ki hKOPr; [3H]-U69593 1.5 nM
# SNI neuropathic pain [2] = assay: Spared nerve injury (SNI) model, foot weight bearing difference; assay type: in vivo, rats; settings: high dose 10 mg/kg s.c.
# SNI neuropathic pain [3] = assay: Spared nerve injury (SNI) model, mechanical pain threshold (Von Frey Hairs); assay type: in vivo, rats
Structure (SMILES),hDOP receptor Emax(%) (hDOP receptor),pEC50 (hDOP receptor),hKOP receptor Emax(%) (hKOP receptor),pEC50 (hKOP receptor),hMOP receptor Emax(%) (hMOP receptor),pEC50 (hMOP receptor),hNOP receptor (ORL-1 receptor) Emax(%) [1],pEC50 [1],pKi (hNOPr),pKi (hKOPr),balance value of weight bearing difference between the hind feet (SNI neuropathic pain [2]; first hour),balance value of weight bearing difference between the hind feet (SNI neuropathic pain [2]; second hour),"inhibition of neuropathic pain (in words) (SNI neuropathic pain [3]; SNI rats, 1, 3, 10 mg/kg s.c.)","mechanical pain threshold (Von Frey Hairs) (SNI neuropathic pain [3]; high dose 10 mg/kg s.c., 1 h after administration)","mechanical pain threshold (Von Frey Hairs) (SNI neuropathic pain [3]; high dose 10 mg/kg s.c., second hour)","mechanical pain threshold (Von Frey Hairs) (SNI neuropathic pain [3]; medium dose 3 mg/kg s.c., 1 h after administration)"
O=c1n(CCN2CCOCC2)c2cc(Cl)c(Cl)cc2n1C1CCN(Cc2ccc(F)cc2F)CC1,125.2%,5.65,108.1%,6.72,114.7%,7.03,71.9%,5.96,–,–,–,–,–,–,–,–
CC(C)[C@H]1CC[C@@H](N2CCC(n3c(=O)n(CCN4CCOCC4)c4cc(F)c(Cl)cc43)CC2)CC1,–,–,–,–,62.12%,5.99,82.83%,6.21,–,–,–,–,–,–,–,–
O=C1NCc2cc(Cl)c(Cl)cc2N1C1CCN(Cc2ccccc2Cl)CC1,–,–,91.40%,7.07,98.87%,7.36,77.59%,6.58,–,–,–,–,–,–,–,–
CC(C)[C@H]1CC[C@@H](N2CCC(n3c(=O)n(CCN(C)C)c4cc(Cl)c(Cl)cc43)CC2)CC1,–,–,–,–,84.75%,6.28,89.29%,6.67,–,–,–,–,–,–,–,–
CC(C)C1CCC(N2CCC(n3c(=O)n(CCN4CCOCC4)c4cc(Cl)c(Cl)cc43)CC2)CC1 (stereo not shown),71.8%,5.40,108.4%,5.46,80.7%,6.49,33.6%,6.36,–,–,–,–,–,–,–,–
O=c1n(CCN2CCOCC2)c2cc(Cl)c(Cl)cc2n1C1CCN(Cc2ccccc2F)CC1,–,–,102.20%,8.98,101.50%,7.22,74.28%,6.38,–,–,–,–,–,–,–,–
CC(C)C1CCC(N2CCC(N3Cc4cc(Cl)c(Cl)cc4N(CCN4CCOCC4)C3=O)CC2)CC1 (stereo not shown),–,–,–,–,–,–,–,–,6.24,–,–,–,–,–,–,–
O=C1N(CCN2CCOCC2)Cc2cc(Cl)c(Cl)cc2N1C1CCN(Cc2ccc(F)cc2Cl)CC1,–,–,–,6.57,–,7.29,–,6.68,–,–,–,–,–,–,–,–
Cc1ccccc1CN1CCC(n2c(=O)n(CCN3CCOCC3)c3cc(Cl)c(Cl)cc32)CC1,–,–,100.40%,7.93,101.70%,7.69,67.22%,6.43,–,–,–,–,–,–,–,–
O=c1n(CCN2CCOCC2)c2cc(Cl)c(Cl)cc2n1C1CCN(Cc2ccccc2Cl)CC1,–,–,121.20%,7.54,101.60%,7.33,65.25%,6.21,–,–,–,–,–,–,–,–
CN1CCN(CCn2c(=O)n(C3CCN(Cc4ccc(F)cc4Cl)CC3)c3cc(Cl)c(Cl)cc32)CC1,114.6%,5.56,95.8%,7.67,89.1%,7.14,73.2%,6.35,–,–,–,–,–,–,–,–
O=c1n(CCN2CCOCC2)c2cc(Cl)c(Cl)cc2n1C1CCN(Cc2ccc(Cl)cc2Cl)CC1,124.1%,5.80,97.2%,6.80,85.4%,7.65,91.0%,6.16,–,–,–,–,–,–,–,–
O=c1n(CCN2CCOCC2)c2cc(Cl)c(Cl)cc2n1C1CCN(Cc2ccc(Cl)cc2F)CC1,138.6%,5.58,91.0%,6.08,105.2%,7.29,92.75%,5.40,–,–,–,–,–,–,–,–
Cc1ccc(CN2CCC(n3c(=O)n(CCN4CCOCC4)c4cc(Cl)c(Cl)cc43)CC2)c(Cl)c1,118.8%,5.86,110.8%,7.17,91.7%,7.61,86.4%,6.21,–,–,–,–,–,–,–,–
O=C1N(CCN2CCOCC2)c2cc(Cl)c(Cl)cc2CN1C1CCN(Cc2ccc(F)cc2Cl)CC1,–,–,–,–,–,–,–,–,5.66,7.57,–,–,–,–,–,–
CN(C)CCn1c(=O)n(C2CCN(Cc3ccc(F)cc3Cl)CC2)c2cc(Cl)c(Cl)cc21,–,–,100.20%,6.57,103.10%,7.45,86.99%,6.31,–,–,–,–,–,–,–,–
CC(C)[C@H]1CC[C@@H](N2CCC(n3c(=O)n(CCN4CCOCC4)c4cc(Cl)c(F)cc43)CC2)CC1,–,–,–,–,55.85%,5.93,54.76%,6.16,–,–,–,–,–,–,–,–
O=c1n(CCN2CCS(=O)(=O)CC2)c2cc(Cl)c(Cl)cc2n1C1CCN(Cc2ccc(F)cc2Cl)CC1,–,–,74.93%,7.10,104.00%,8.42,73.26%,6.55,–,–,–,–,–,–,–,–
O=c1n(CCN2CCCCC2)c2cc(Cl)c(Cl)cc2n1C1CCN(Cc2ccc(F)cc2Cl)CC1,–,–,94.00%,6.45,97.06%,7.06,81.78%,6.00,–,–,–,–,–,–,–,–
CC(C)[C@H]1CC[C@@H](N2CCC(n3c(=O)n(CCN4CCOCC4)c4cc(Cl)c(Cl)cc43)CC2)CC1,115.1%,4.79,80.58%,6.20,66.77%,6.25,52.88%,6.40,–,–,–,–,–,–,–,–
CC(C)[C@H]1CC[C@@H](N2CCC(n3c(=O)n(CCN4CCOCC4)c4cc(F)c(F)cc43)CC2)CC1,–,–,–,–,76.14%,6.28,79.98%,6.55,–,–,–,–,–,–,–,–
O=c1n(CCN2CCOCC2)c2cc(Cl)c(Cl)cc2n1C1CCN(Cc2ccc(F)cc2Cl)CC1,117.0%,6.25,92.1%,7.43,94.5%,8.06,76.7%,6.45,–,–,46.82 ± 1.68 g,46.54 ± 0.80 g,effectively inhibit neuropathic pain in rats,9.5 ± 0.2 g,8.3 ± 0.1 g,7.0 ± 0.1 g
Cc1cc(F)ccc1CN1CCC(n2c(=O)n(CCN3CCOCC3)c3cc(Cl)c(Cl)cc32)CC1,119.4%,5.68,110.5%,6.61,91.6%,7.23,80.2%,6.23,–,–,–,–,–,–,–,–

# pEC50, pKi: −log10 of the molar value.
